pIC50: −log10 of the molar value.
Target: T1, 5-lipoxygenase (Rattus norvegicus, UniProt P12527)
T1 construct: 20,000×g supernatant from homogenized RBL-1 cells; endogenous in cells; host or cells: RBL-1 cells (20,000×g supernatant of the homogenate)
T1 sequence (P12527 1-673): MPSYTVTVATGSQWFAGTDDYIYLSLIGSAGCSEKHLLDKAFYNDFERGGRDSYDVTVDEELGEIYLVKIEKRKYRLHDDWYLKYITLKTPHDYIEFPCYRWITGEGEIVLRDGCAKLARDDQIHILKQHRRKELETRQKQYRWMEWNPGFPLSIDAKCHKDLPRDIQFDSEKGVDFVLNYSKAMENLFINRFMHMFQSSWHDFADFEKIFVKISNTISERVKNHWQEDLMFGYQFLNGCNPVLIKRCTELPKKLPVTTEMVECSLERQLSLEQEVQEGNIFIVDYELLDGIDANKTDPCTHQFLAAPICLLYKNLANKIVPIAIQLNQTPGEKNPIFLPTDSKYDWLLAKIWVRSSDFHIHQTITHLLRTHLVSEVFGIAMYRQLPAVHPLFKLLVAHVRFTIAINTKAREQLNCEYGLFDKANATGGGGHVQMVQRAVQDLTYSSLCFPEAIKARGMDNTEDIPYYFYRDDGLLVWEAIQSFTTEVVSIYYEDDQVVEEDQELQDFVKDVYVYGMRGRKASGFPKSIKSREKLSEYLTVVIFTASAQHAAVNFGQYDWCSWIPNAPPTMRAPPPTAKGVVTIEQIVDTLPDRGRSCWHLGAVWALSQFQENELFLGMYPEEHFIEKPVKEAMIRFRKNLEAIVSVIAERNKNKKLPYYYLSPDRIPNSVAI
Test: Inhibition of 5-lipoxygenase activity in 20,000×g supernatant from homogenized RBL-1 cells
Format: biochemical
Conditions: linear regression of percentage inhibition versus log inhibitor concentration, read-out: IC50 (In vitro 5-lipoxygenase inhibitory potency)
Method: Inhibition of 5-lipoxygenase activity was determined using the 20,000×g supernatant from homogenized RBL-1 cells in a similar manner as that described by Dyer and coworkers (Dyer, R. D.; Haviv, F.; Hanel, A. M.; Bornemier, D. A.; Carter, G. W. Fed. Proc , Fed. Am. Soc. Exp. Biol. 1984, 43, 1462A). IC50 values (concentration of compound producing 50% enzyme inhibition) were calculated by linear regression analysis of percentage inhibition versus log inhibitor concentration plots.

pIC50: 5.32
Structure (SMILES): COc1ccc2cc(C(C)NC(=O)NO)ccc2c1 (stereo not drawn) [Example 2, N'-hydroxy-N-[l-(6-methoxynaphthalen-2yl)ethyl]urea]

Source: patent US5068251A, “Lipoxygenase inhibiting compounds” (Abbott Laboratories, priority 1988, dated 1991)
